{
  "source": "patent US20190307740A1",
  "about": "“COMPOSITIONS AND METHODS FOR TREATMENT RELATED TO FALL AND FALL FREQUENCY IN NEURODEGENERATIVE DISEASES” (Neurocea, LLC, priority 2016, published 2019)",
  "key": {"nAChR": {"system": "nAChR", "details": "cited from earlier work"}, "[1]": {"system": "rats with a unilateral 6-hydroxydopamine lesion", "experiment": "LIDs in rats with a unilateral 6-hydroxydopamine lesion", "format": "in vivo", "details": "parkinsonian rat model of LIDs"}},
  "data": [
    {"smiles": "O=C(C1CC1)N1CC2CC(C1)N2", "values": [
      {"measurement": "Type of agonist", "setting": "nAChR", "value": "Full"},
      {"measurement": "effect on LIDs", "setting": "[1]", "value": "reduced LIDs to varying extents"}
    ]}
  ]
}
